Binding of CDR-mutated scFvs to a peptide of the spike HR2 region

Data: MIT Lincoln Laboratory AlphaSeq set, Engelhart et al. 2022, doi:10.1038/s41597-022-01779-4, as distributed in FLAb.

Antigen: PDVDLGDISGINAS, a 14-residue peptide of the SARS-CoV-2 spike HR2 region.

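Phage display of a naive human antibody library on the peptide gave the parent. In library AAYL52, one, two or three CDR residues were substituted; doubles and triples were drawn at random. In AlphaSeq, yeast of one mating type display the scFv and yeast of the other type display the target. After mating in shaken culture at 30 °C for 16 h, diploids were selected and their barcode pairs sequenced. The ratio of observed to expected reads was calibrated, replicate by replicate, on BCL2-family standards whose Kd was known from biolayer interferometry. There are three technical replicates.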

Ab-95 is the parent antibody, in scFv form: VH, then a (GGGGS)3 linker, then VL. The heavy chain is unchanged in all variants.
VH: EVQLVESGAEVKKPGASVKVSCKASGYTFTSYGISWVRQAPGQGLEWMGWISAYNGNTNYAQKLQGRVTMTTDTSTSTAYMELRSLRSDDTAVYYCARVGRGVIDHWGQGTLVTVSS
VL: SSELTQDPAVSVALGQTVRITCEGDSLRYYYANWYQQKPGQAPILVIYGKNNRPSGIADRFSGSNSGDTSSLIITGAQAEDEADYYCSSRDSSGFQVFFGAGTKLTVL

Substitutions are numbered in sequence along the VL above, starting at 1 (not Kabat).
Kd is apparent (estimated from mating counts) and averaged on the log scale over replicates with a signal. Smaller is tighter.
A pair that was not seen in any replicate is written "no signal"; this usually means weak binding, but a binder can also be missed.
For reference, the parent read 200 nM as the reference entry and 180 nM as a member of this library.
Background: pairings of library AAYL52 with three empty control strains gave a value in 28% of cases (median 8.2 µM, 5th percentile 800 nM). Values in that range, when seen in few replicates, are hard to tell from nonspecific mating.

{"changes": "S55C/S92K/F98K", "Kd (apparent)": "1.0 µM", "replicates with signal": "3/3"}
{"changes": "R53K/S88E/F98P", "Kd (apparent)": "7.1 µM", "replicates with signal": "1/3"}
{"changes": "G49R/D91T", "Kd (apparent)": "4.4 µM", "replicates with signal": "1/3"}
{"changes": "R28G/N33K/F98T", "Kd (apparent)": "no signal", "replicates with signal": "0/3"}
{"changes": "G24I/L27W/R90P", "Kd (apparent)": "no signal", "replicates with signal": "0/3"}
{"changes": "G49N/S92I/G94Y", "Kd (apparent)": "no signal", "replicates with signal": "0/3"}
{"changes": "G24W/K50D/S88M", "Kd (apparent)": "320 nM", "replicates with signal": "3/3"}
{"changes": "G24K/D25H/D91V", "Kd (apparent)": "no signal", "replicates with signal": "0/3"}
{"changes": "A32K/N33K/R53G", "Kd (apparent)": "3.8 µM", "replicates with signal": "3/3"}
{"changes": "Y31S/K50C/S93V", "Kd (apparent)": "1.3 µM", "replicates with signal": "3/3"}
{"changes": "K50N/N51R/P54W", "Kd (apparent)": "1.0 µM", "replicates with signal": "1/3"}
{"changes": "G49Y/N51R", "Kd (apparent)": "no signal", "replicates with signal": "0/3"}
{"changes": "G24D/N51M/P54V", "Kd (apparent)": "10 µM", "replicates with signal": "1/3"}
{"changes": "Y29H/Q96C/F98S", "Kd (apparent)": "60 nM", "replicates with signal": "3/3"}
{"changes": "D25V/S88N/F95H", "Kd (apparent)": "1.2 µM", "replicates with signal": "2/3"}
{"changes": "Y31S/G49Y/N52I", "Kd (apparent)": "6.4 µM", "replicates with signal": "3/3"}
{"changes": "E23W/V97T/F98N", "Kd (apparent)": "2.0 µM", "replicates with signal": "3/3"}
{"changes": "Y30R/S93G/F98Q", "Kd (apparent)": "230 nM", "replicates with signal": "3/3"}
{"changes": "D25F/S26P/K50P", "Kd (apparent)": "910 nM", "replicates with signal": "2/3"}
{"changes": "E23W/R53M/D91V", "Kd (apparent)": "26 µM", "replicates with signal": "1/3"}
{"changes": "R90Y/V97G", "Kd (apparent)": "280 nM", "replicates with signal": "3/3"}
{"changes": "Y30E/N33G/V97L", "Kd (apparent)": "no signal", "replicates with signal": "0/3"}
{"changes": "G24T/L27E/S92Q", "Kd (apparent)": "17 nM", "replicates with signal": "3/3"}
{"changes": "Y29S/Q96L", "Kd (apparent)": "370 nM", "replicates with signal": "2/3"}

For reference, 2 entries of the list once more:

| changes | Kd (apparent) | replicates with signal |
|---|---|---|
| G49R/D91T | 4.4 µM | 1/3 |
| A32K/N33K/R53G | 3.8 µM | 3/3 |